Measurements: patent US12486253B2, “Therapeutics for the degradation of mutant BRAF” (C4 THERAPEUTICS, INC., priority 2021, dated 2025)
Where two headings read alike, the source gives them in different places.

Protein sequences, listed by entry. Tags and fused reporters are not part of them.
UniProt P15056, whole entry V600E: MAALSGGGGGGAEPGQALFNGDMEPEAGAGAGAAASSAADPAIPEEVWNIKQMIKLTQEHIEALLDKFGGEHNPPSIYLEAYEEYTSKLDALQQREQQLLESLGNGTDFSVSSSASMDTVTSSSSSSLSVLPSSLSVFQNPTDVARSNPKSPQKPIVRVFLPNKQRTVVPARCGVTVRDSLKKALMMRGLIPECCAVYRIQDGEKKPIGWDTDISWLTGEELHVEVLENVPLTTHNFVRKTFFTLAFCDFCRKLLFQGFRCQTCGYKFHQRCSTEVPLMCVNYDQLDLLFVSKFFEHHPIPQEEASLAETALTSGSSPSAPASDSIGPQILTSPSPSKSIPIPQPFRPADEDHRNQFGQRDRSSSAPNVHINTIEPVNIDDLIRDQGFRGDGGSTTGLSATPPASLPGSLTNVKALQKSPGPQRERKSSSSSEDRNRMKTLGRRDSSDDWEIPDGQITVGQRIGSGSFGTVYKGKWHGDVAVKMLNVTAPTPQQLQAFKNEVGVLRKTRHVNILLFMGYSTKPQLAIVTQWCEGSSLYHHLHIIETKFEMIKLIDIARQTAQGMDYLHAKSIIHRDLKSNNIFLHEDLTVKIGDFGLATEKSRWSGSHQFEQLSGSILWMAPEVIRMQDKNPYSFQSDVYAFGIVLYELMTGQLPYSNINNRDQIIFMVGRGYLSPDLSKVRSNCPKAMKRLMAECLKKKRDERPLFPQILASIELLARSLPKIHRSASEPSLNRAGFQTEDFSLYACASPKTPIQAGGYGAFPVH

Molecular target: BRAF V600E (Homo sapiens, UniProt P15056, V600E)
Assay: HiBiT cellular BRAF^V600E degradation assay
Type: cell-based
Conditions: for DC50: read-out: HiBit 24 h DC50; for Emax: read-out: HiBit 24 h Emax
[1] = A375.10 cells, 24 h, concentration at which 50% of total cellular BRAF^V600E is degraded

| Structure (SMILES) | DC50 [nM] | Emax [%] | DC50 [1] [nM] |
| --- | --- | --- | --- |
| CCN(C)S(=O)(=O)Nc1ccc(F)c(Oc2ccc3ncn(-c4cnc(N5CCN(C(=O)CN6CC[C@@H](c7ccc(N[C@H]8CCC(=O)NC8=O)cc7F)[C@H](OC)C6)CC5)nc4)c(=O)c3c2)c1C#N (single isomer, unassigned) [Example 104] | 56.3 | 22.3 | – |
| CCN(C)S(=O)(=O)Nc1ccc(F)c(Oc2ccc3ncn(-c4cnc(N5CCN(C(=O)C(CO)N6CCC(c7ccc(NC8CCC(=O)NC8=O)cc7F)CC6)CC5)nc4)c(=O)c3c2)c1C#N (centres unmarked) [Example 91, 6-[2-cyano-3-[[ethyl(methyl)sulfamoyl]amino]-6-fluorophenoxy]-3-[2-[4-[2-[4-[4-[(2,6-dioxopiperidin-3-yl)amino]-2-fluorophenyl]piperidin-1-yl]-3-hydroxypropanoyl]piperazin-1-yl]pyrimidin-5-yl]-4-oxoquinazoline] | – | 18.4 | 42.4 |
| CCN(C)S(=O)(=O)Nc1ccc(F)c(Oc2ccc3ncn(-c4cnc(N5CCN(C(=O)[C@H](CO)N6CCC(c7ccc(N[C@H]8CCC(=O)NC8=O)cc7F)CC6)CC5)nc4)c(=O)c3c2)c1C#N [Example 98, 6-[2-cyano-3-[[ethyl(methyl)sulfamoyl]amino]-6-fluorophenoxy]-3-[2-[4-[(2S)-2-[4-[4-[[(3S)-2,6-dioxopiperidin-3-yl]amino]-2-fluorophenyl]piperidin-1-yl]-3-hydroxypropanoyl]piperazin-1-yl]pyrimidin-5-yl]-4-oxoquinazoline] | – | – | 20.1 |
